Reference: patent US6271233A, “Method for treating ocular neovascular diseases” (priority 1999, dated 2001)

System: retinal vessels
Conditions: 50 mg/kg/day, adult mice; FIGS. 6, 7

Clc1ccc(Nc2nnc(Cc3ccncc3)c3ccccc23)cc1 [CGP 79787D]
total area of endothelial staining in the retina or appearance of retinal vessels versus vehicle: no difference
